Our source for the EC50 and Ki values is patent EP2768830B1, “APOPTOSIS-INDUCING AGENTS FOR THE TREATMENT OF CANCER AND IMMUNE AND AUTOIMMUNE DISEASES” (AbbVie Inc., priority 2011, dated 2013).

Protein sequences, listed by entry. Tags and fused reporters are not part of them.
UniProt Q07817, whole entry: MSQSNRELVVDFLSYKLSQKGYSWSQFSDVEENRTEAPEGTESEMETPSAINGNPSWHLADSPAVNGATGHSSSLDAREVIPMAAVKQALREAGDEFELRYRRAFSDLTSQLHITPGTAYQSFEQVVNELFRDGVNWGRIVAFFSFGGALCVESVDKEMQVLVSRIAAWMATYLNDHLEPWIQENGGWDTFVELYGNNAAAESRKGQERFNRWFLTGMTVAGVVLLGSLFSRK

The subject of one assay is mouse FL5.12 cells transfected with Bcl-XL. Description: FL5.12 cellular assay (cell viability, CellTiter-Glo).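 Note: each EC50 determination derived from duplicate measurements.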 The assay is classed as cell-based. As to conditions: IL-3-depleted, 3% FBS assay media, 24 hours, read-out: FL5.12 Bcl-xL, - IL3, EC 50.
On to `O=C(Nc1nc2ccccc2s1)c1cccc2c1CN(c1ccc(-c3cnn(Cc4ccccc4Cl)c3)c(C(=O)O)n1)CC2` [Example 25, 6-[8-(1,3-benzothiazol-2-ylcarbamoyl)-3,4-dihydroisoquinolin-2(1H)-yl]-3-[1-(2-chlorobenzyl)-1H-pyrazol-4-yl]pyridine-2-carboxylic acid], for which the EC50 worked out at 377 nM.

As to `Cc1cccc(Cn2cc(-c3ccc(N4CCc5cccc(C(=O)Nc6nc7ccccc7s6)c5C4)nc3C(=O)O)cn2)c1` [Example 13, 6-[8-(1,3-benzothiazol-2-ylcarbamoyl)-3,4-dihydroisoquinolin-2(1H)-yl]-3-[1-(3-methylbenzyl)-1H-pyrazol-4-yl]pyridine-2-carboxylic acid], the EC50 came to 498 nM.

Another assay has as its target GST-Bcl-xL (Homo sapiens, UniProt Q07817).
Experiment: not given
As to conditions: read-out: TR-FRET binding Bcl-xL Ki. On the technique in general: TR-FRET usually uses a lanthanide donor and a delayed reading to cut background.
On to `Cc1c(-c2ccc(N3CCc4cccc(C(=O)Nc5nc6ccccc6s5)c4C3)nc2C(=O)O)cnn1Cc1ccccc1OCC1CCOCC1` [Example 99, 6-[8-(1,3-benzothiazol-2-ylcarbamoyl)-3,4-dihydroisoquinolin-2(1H)-yl]-3-{5-methyl-1-[2-(tetrahydro-2H-pyran-4-ylmethoxy)benzyl]-1H-pyrazol-4-yl}pyridine-2-carboxylic acid], for which the inhibitory constant (Ki) is 0.9 nM.

As to `Cc1c(-c2ccc(N3CCc4cccc(C(=O)Nc5nc6ccccc6s5)c4C3)nc2C(=O)O)cccc1N(C)c1ccccc1` [Example 156, 6-[8-(1,3-benzothiazol-2-ylcarbamoyl)-3,4-dihydroisoquinolin-2(1H)-yl]-3-{2-methyl-3-[methyl(phenyl)amino]phenyl}pyridine-2-carboxylic acid], the Ki was 0.2 nM.

Turning to `CN(c1nccc(-c2ccc(N3CCc4cccc(C(=O)Nc5nc6ccccc6s5)c4C3)nc2C(=O)O)c1C#N)C1CCCCC1` [Example 164, 6-[8-(1,3-benzothiazol-2-ylcarbamoyl)-3,4-dihydroisoquinolin-2(1H)-yl]-3'-cyano-2'-[cyclohexyl(methyl)amino]-3,4'-bipyridine-2-carboxylic acid], the Ki was under 0.1 nM.

For the compound `O=C(Nc1nc2ccccc2s1)c1cccc2c1CN(c1ccc(-c3ccc(Oc4ccccc4)cc3)c(C(=O)O)n1)CC2` [Example 102, 6-[8-(1,3-benzothiazol-2-ylcarbamoyl)-3,4-dihydroisoquinolin-2(1H)-yl]-3-(4-phenoxyphenyl)pyridine-2-carboxylic acid], the Ki is under 0.1 nM.

Turning to `Cc1c(Oc2ccccc2)cccc1-c1ccc(N2CCc3cccc(C(=O)Nc4nc5ccccc5s4)c3C2)nc1C(=O)O` [Example 110, 6-[8-(1,3-benzothiazol-2-ylcarbamoyl)-3,4-dihydroisoquinolin-2(1H)-yl]-3-(2-methyl-3-phenoxyphenyl)pyridine-2-carboxylic acid], the Ki is 0.3 nM.

For `O=C(Nc1nc2ccccc2s1)c1cccc2c1CN(c1ccc(-c3cnn(CC4CCCCO4)c3)c(C(=O)O)n1)CC2` (stereo not drawn) [Example 149, 6-[8-(1,3-benzothiazol-2-ylcarbamoyl)-3,4-dihydroisoquinolin-2(1H)-yl]-3-[1-(tetrahydro-2H-pyran-2-ylmethyl)-1H-pyrazol-4-yl]pyridine-2-carboxylic acid], the Ki was 0.3 nM.

For the compound “6-[8-(1,3-benzothiazol-2-ylcarbamoyl)-3,4-dihydroisoquinolin-2(1H)-yl]-3-(5-methyl-1-{[6-(pyrrolidin-1-yl)pyridin-2-yl]methyl}-1H-pyrazol-4-yl)pyridine-2-carboxylic acid and 6-(8-(1,3-benzothiazol-2-ylcarbamoyl)-3,4-dihydroisoquinolin-2(1H)-yl)-3-(3-methyl-1-((6-(pyrrolidin-1-yl)pyridin-2-yl)methyl)-1H-pyrazol-4-yl)pyridine-2-carboxylic acid [Example 32]”, the Ki was 5 nM.

By Ki is commonly meant the dissociation constant of the complex between target and ligand, obtained from inhibition or displacement.
